Measurements taken from patent publication US20030073850A1, “4-Imidazole derivatives of benzyl and restricted benzyl sulfonamides, sulfamides, ureas, carbamates, and amides and their use” (priority 1998, published 2003).

The chains behind the UniProt entries cited, without tags or fusion partners.
UniProt P18841, whole entry: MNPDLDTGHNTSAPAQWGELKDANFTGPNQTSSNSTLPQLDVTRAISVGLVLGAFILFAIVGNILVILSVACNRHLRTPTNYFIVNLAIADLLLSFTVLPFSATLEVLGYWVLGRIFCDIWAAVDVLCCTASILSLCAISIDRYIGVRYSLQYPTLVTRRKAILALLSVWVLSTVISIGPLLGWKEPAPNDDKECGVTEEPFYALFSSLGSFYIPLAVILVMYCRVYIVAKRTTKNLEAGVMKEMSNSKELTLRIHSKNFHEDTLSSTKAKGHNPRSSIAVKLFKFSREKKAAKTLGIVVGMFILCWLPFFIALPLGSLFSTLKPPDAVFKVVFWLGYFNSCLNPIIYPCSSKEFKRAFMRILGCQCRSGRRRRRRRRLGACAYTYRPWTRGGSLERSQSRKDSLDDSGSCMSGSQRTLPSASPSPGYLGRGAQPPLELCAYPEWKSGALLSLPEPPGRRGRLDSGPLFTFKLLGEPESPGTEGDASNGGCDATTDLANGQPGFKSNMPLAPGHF
UniProt P23944, whole entry: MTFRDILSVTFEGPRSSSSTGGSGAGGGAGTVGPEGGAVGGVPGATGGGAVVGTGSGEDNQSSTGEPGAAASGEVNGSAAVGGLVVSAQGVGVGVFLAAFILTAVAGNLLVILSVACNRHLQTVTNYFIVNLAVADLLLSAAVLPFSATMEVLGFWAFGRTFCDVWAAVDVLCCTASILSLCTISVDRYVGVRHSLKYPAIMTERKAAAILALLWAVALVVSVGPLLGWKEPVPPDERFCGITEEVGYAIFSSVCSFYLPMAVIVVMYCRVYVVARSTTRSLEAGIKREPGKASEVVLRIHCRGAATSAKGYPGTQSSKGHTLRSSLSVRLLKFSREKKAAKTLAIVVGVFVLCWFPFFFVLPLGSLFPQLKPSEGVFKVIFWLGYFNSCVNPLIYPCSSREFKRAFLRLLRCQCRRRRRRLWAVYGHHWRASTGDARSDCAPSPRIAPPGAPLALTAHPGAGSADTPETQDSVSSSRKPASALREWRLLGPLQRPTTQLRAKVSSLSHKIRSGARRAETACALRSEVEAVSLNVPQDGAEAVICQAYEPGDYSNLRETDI
UniProt P15823, whole entry: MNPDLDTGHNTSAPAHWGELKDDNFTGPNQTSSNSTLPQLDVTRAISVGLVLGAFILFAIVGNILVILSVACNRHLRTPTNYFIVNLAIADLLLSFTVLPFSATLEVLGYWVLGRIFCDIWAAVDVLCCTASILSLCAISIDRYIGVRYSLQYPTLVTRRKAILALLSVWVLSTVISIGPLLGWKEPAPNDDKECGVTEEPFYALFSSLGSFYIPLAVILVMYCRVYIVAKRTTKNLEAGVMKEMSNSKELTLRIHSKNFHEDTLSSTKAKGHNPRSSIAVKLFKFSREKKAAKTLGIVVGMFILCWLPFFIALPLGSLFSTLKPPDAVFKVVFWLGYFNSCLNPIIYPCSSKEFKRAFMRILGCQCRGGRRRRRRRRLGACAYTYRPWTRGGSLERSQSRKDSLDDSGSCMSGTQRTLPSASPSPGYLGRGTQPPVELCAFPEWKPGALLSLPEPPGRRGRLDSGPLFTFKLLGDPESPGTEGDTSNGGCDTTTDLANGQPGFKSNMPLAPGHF

What was measured:
[1] = molecular target: T1, α1b (hamster receptor expressed in mouse fibroblasts) (Mesocricetus auratus, UniProt P18841); assay: Radioligand binding, [3H]-prazosin, α1b
T1 construct: expressed in transfected cells; host or cells: mouse fibroblasts
Description: (§1) For purposes of discussing a, adrenoceptor subtypes, the IUPHAR convention of using lower case letters to define molecular clones and upper case letters to indicate pharmacologically defined adrenoceptors has been followed. Compounds of formula I were evaluated in radioligand binding assays specific for α1A (rat submaxillary gland), α1b (hamster receptor expressed in mouse fibroblasts) and α1d (rat receptor expressed in mouse fibroblasts) using [^3H]-prazosin as the radioligand as described in Knepper, et al. J. Pharm.

[2] = molecular target: T2, α1d (rat receptor expressed in mouse fibroblasts) (Rattus norvegicus, UniProt P23944); assay: Radioligand binding, [3H]-prazosin, α1d
T2 construct: expressed in transfected cells; host or cells: mouse fibroblasts
Description: as §1

[3] = molecular target: T3, α1A (rat submaxillary gland) (Rattus norvegicus, UniProt P43140); assay: Radioligand binding, [3H]-prazosin, α1A
T3 construct: α1A (rat submaxillary gland); from tissue; host or cells: rat submaxillary gland
T3 sequence (P43140 1-466): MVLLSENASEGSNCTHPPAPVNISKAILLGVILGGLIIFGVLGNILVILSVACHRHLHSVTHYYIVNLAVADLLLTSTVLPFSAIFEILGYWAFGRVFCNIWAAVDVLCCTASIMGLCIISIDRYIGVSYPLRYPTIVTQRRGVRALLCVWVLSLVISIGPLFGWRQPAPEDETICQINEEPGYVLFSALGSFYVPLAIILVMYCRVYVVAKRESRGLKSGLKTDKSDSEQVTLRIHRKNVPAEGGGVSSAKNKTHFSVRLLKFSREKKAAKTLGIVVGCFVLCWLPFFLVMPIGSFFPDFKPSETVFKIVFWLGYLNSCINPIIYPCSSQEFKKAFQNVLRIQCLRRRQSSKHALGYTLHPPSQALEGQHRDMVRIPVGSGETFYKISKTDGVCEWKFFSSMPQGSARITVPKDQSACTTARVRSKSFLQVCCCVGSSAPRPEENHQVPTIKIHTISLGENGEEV
Description: as §1

[4] = molecular target: T4, α1B (rat spleen) (Rattus norvegicus, UniProt P15823); assay: Agonist tissue response, contraction of rat spleen; format: biochemical; conditions: read-out: Agonist Tissue Response (pD2) α1B (rat spleen) (converted)
T4 construct: α1B (rat spleen) and α1D (rat aorta) receptors; from tissue; host or cells: rat spleen

[5] = test system: anesthetized dogs; assay: Intraurethral pressure (IUP) in anesthetized dogs; format: in vivo, dog; conditions: iv
Description: Female Beagle dogs (Marshall Farms, North Rose, N.Y.) greater that 2 years of age and weighing between 12 and 15 kg were used in these studies. At least 2 weeks prior to any agonist dosing, dogs were instrumented for the chronic measurement of arterial blood pressure by implanting a telemetry transducer/transmitter (TA11PA-C40, Data Sciences International, St. Paul, Minn.) into a carotid artery.
On the test day, dogs fasted since the previous afternoon were pre-anesthetized with thiopental sodium 15 mg/kg i.v. (Pentothal™, Abbott) and intubated. Anesthesia was maintained by allowing the dog to spontaneously breathe a mixture of isoflurane (2.5 to 3 volume %) and oxygen delivered by a Narkomed Standard anesthesia system (North American Drager, Telford, Pa.). […]
Dogs with chronic telemetry implants anesthetized as described above were placed in dorsal recumbency and a balloon catheter was inserted into the urethral orifice and advanced approximately 15 cm until the tip was well inside the bladder. […] Increasing iv doses of test agonists were administered and the maximum effect of each dose on IUP was recorded. […]
From the resulting dose response curve, an ED5 value, for the dose causing a maximum increase in IUP of 5 mm Hg, could be estimated. […] A selectivity ratio of MAP ED20 vs. IUP ED, was calculated.

| Structure (SMILES) | Ki [1] [µM] | Ki [2] [µM] | Ki [3] [µM] | EC50 [4] [µM] | Mean Selectivity Ratio MAP ED20/IUP ED5 [5] |
| --- | --- | --- | --- | --- | --- |
| CC(=O)Nc1cccc2c1CCCC2c1c[nH]cn1.O=C(O)/C=C\C(=O)O (stereo not shown) [Example 16, N-[5,6,7,8-tetrahydro-5-(1H-imidazol-4-yl)-1-naphthalenyl]acetamide, Maleate] | 10 | 10 | – | – | – |
| CS(=O)(=O)Nc1cccc2c1CCC=C2c1c[nH]cn1.O=C(O)/C=C\C(=O)O [Example 47, N-[5-(1H-imidazol-4-yl)-7,8-dihydro-1-naphthalenyl]methanesulfonamide, Maleate] | 10 | – | – | – | – |
| CS(=O)(=O)Nc1cccc2c1OCCC2c1c[nH]cn1.O=C(O)/C=C\C(=O)O (single isomer, unassigned; (+)) [Example 93, (+) N-[4-(1H-imidazol-4-yl)-3,4-dihydro-2H-chromen-8-yl]methanesulfonamide Maleate] | 10 | – | 0.198 | 26.3 | – |
| C=C(c1cccc(NS(C)(=O)=O)c1)c1c[nH]cn1 [Example 92, N-{3-[1-(1H-imidazol-4-yl)vinyl]phenyl}methanesulfonamide] | – | – | – | – | 1.73 |
